The source of these data is patent US20230100062A1, “ANTIMICROBIAL PEPTIDES” (priority 2019, published 2023).

What all share (format): cell-based
Data set [1] deals with B. subtilis (ATCC 6633). The note with it: 24 h at 37° C. On the procedure:
(§1) Minimum Inhibitory Concentrations assay. Minimum inhibitory concentrations (MICs) were determined by broth microdilution on P. aeruginosa, E. coli, S. aureus, M. luteus, B. subtilis, S. typhimurium and K. pneumoniae according to the Clinical and Laboratory Standards Institute. Typically, 100 μL of 0.5-1×10^6 CFU per ml of each bacterium in Mueller Hinton media broth (Oxoid) were incubated in 96-well microtiter plates with 100 μL of serial two-fold dilutions of the corresponding antimicrobial agent (from 100 to 0 μM) at 37° C. on a 3D orbital shaker. The absorbance was measured after the addition of NI01, its derivatives or an antibiotic at 600 nm using a SpectraMax i3× Multi-Mode Microplate Reader (Molecular Devices). MICs were defined as the lowest protein concentration that inhibited visible bacterial growth after 24 h at 37° C.

For data set [2], the system named is E. coli (ATCC 15597). Conditions: 24 h at 37° C. The method, then: as §1
For data set [3], the system named is M. luteus (ATCC 49732). The note with it: 24 h at 37° C. On the procedure: as §1
Data set [4] deals with P. aeruginosa (ATCC 27853). Conditions: 24 h at 37° C. The method, then:
as §1

Data set [5] concerns S. aureus (ATCC 6538). Conditions: 24 h at 37° C. On the procedure:
as §1

For data set [6], the system named is S. typhimurium (DA6192). The note with it: 24 h at 37° C. On the procedure: as §1
The nature of data set [7]: Hemolysis assay. The note with it: 10% (vol/vol) suspension, pH 7.2; Human erythrocytes, 1 h at room temperature; read-out: HD30, median hemolytic doses to achieve 50% lysis. The method, then: Hemolysis assay. Hemolysis was determined using human erythrocytes sourced commercially from Cambridge Bioscience Ltd. and used within two days. 10% (vol/vol) suspensions of human erythrocytes were incubated with NI01, its derivatives or antibiotics. The cells were rinsed four times in 10 mM phosphate buffer saline (PBS, GibcoTM), pH 7.2, by repeated centrifugation and re-suspension (3 min at 3000×g). The cells were then incubated at room temperature for 1 h in either deionized water (fully hemolysed control), PBS, or with a corresponding antimicrobial agent in PBS. After centrifugation at 10,000×g for 5 min, the supernatant was separated from the pellet, and the absorbance was measured at 550 nm using a SpectraMax i3× Multi-Mode Microplate Reader (Molecular Devices). Absorbance of the suspension treated with deionized water defined complete hemolysis. The values given in Table S2 correspond to concentrations needed to lyse half of the sample population (50% lysis of erythrocytes) and are expressed as median hemolytic doses—HD50.

`CC[C@H](C)[C@H](NC(=O)CN)C(=O)NCC(=O)N[C@@H](C)C(=O)N[C@H](C(=O)N[C@@H](CC(C)C)C(=O)N[C@@H](CCCCN)C(=O)N[C@H](C(=O)N[C@@H](CC(C)C)C(=O)N[C@H](C(=O)N[C@H](C(=O)NCC(=O)N[C@@H](CC(C)C)C(=O)N1CCC[C@H]1C(=O)N[C@@H](C)C(=O)N[C@@H](CC(C)C)C(=O)N[C@H](C(=O)N[C@@H](CO)C(=O)N[C@@H](Cc1c[nH]c2ccccc12)C(=O)N[C@H](C(=O)N[C@@H](CCCCN)C(=O)N[C@@H](CCCNC(=N)N)C(=O)N[C@@H](CCCCN)C(=O)N[C@@H](CCCNC(=N)N)C(=O)N[C@@H](CCC(N)=O)C(=O)N[C@@H](CCC(N)=O)C(N)=O)[C@@H](C)CC)[C@@H](C)CC)[C@@H](C)O)[C@@H](C)O)C(C)C)C(C)C` [melittin]: the “Minimum Inhibitory Concentration” value was 9 µg/mL in data set [1]; 7 µg/mL in data set [2]; 2 µg/mL in data set [3]; 25 µg/mL in data set [4]; 3 µg/mL in data set [5]; 9 µg/mL in data set [6]. Besides, the HC50 at 1 h in data set [7] is 5 µg/mL.
